# Only a part is listed here, and it is no random draw. Activity calls are given as the source filed them. Rule as the data show it: active = inhibition above about 38%; inactive = the rest.
# Sequences of proteins named here, by UniProt entry; tags and fusion partners are left off.
# UniProt P9WHR9, whole entry: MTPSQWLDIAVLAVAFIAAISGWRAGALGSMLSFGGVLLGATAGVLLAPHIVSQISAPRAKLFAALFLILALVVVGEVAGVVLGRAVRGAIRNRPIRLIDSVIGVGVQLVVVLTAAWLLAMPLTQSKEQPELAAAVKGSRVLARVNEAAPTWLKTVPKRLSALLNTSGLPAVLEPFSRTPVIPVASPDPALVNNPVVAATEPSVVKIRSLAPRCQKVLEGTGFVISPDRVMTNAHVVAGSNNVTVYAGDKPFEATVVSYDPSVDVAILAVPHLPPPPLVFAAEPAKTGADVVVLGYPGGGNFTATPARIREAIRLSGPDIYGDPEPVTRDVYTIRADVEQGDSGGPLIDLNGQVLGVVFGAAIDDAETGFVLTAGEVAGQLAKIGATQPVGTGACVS
# Target: Serine protease Rv3671c (Mycobacterium tuberculosis (strain ATCC 25618 / H37Rv)) (UniProt P9WHR9)
# Assay: inhibition of M. tuberculosis membrane protease Rv3671c – biochemical, fluorescence polarization, M. tuberculosis H37Rv, primary screen (AID 2606);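 also: extracellular domain of Rv3671c used as enzyme; 0% = enzyme with DMSO and 100% = no enzyme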
# Details: at 5.96 µM; stronger effect = higher value
row,Structure (SMILES),inhibition
1,CCC(=O)N(c1ccccc1)C1(COC)CCN(CCc2cccs2)CC1,inactive: -11.2%
2,CCC(=O)N(c1ccccc1)C1(COC)CCN(CCn2nnn(CC)c2=O)CC1,inactive: 2.5%
